Assays:
[1] = system: BM-induced experimental pulmonary fibrosis in mice; details: mouse, in vivo
Experimental: Studies were also performed to determine if macrophages in pulmonary fibrotic lungs might be specifically targeted with folate-linked drugs in vivo. […] (The BM model is widely regarded to be helpful in terms of enabling mechanistic investigations relevant to fibrogenesis in an in vivo context.)
More specifically, eight-week-old C57BL6 male mice from Charles River (average weight 22 g to 25 g) were housed under pathogen-free conditions at room temperature (22° C.) under a 12 hours light-dark cycle. Mice were placed on a folate deficient chow (Envigo Teklad Global Rat Food Pellets) for 1 week prior to the BM or PBS instillation. Fresh water and folate-deficient diet were freely available. […]
Thereafter, the mice were anesthetized with ketamine/xylazine and the necks of the mice were shaved using hair remover lotion and then sterilized with 70% alcohol. […] Body weights were monitored every other day throughout the experiment. […]
For the subsequent HYP analysis, 10 μl of sample was transferred into a 96-well plate and neutralized with 10 μl of 5.3 M sodium hydroxide solution. […] The absorbance was measured at 560 nm (A560) within 15 min. […]
Two doses were given every other day till day 21. […] Mice were then sacrificed on day 21 and subjected immediately to bronchoalveolar lavage followed by resection of the lungs for immunohistochemistry and quantitation of collagen and hydroxyproline.

[2] = system: healthy mice; details: mouse, in vivo

`CCCCc1nc2c(N)nc3ccccc3c2n1CC(C)(C)O` [Compound 1A, 1-(4-Amino-2-butyl-1H-imidazo[4,5-c]quinolin-1-yl)-2-methylpropan-2-ol] was tested, and the weight loss [1] was greater than 25% and the “systemic cytokine release (plasma IL-6, IFNα, TNFα)” value [2] was “stimulates systemic cytokine release”.
